A selection: hits, their analogues and other compounds. The true share with any hit is near 0.43%.
HCMV NEC inh = disrupts HCMV UL50-UL53 complex binding. HTRF UL50-UL53 interaction, normalized percent inhibition. inhibition, % (test concentration not listed). 190,000 tested, 0.15% active; in the data active means inhibition above about 27%, passing the limit was not always enough
GIV Gai3 FP = blocks GIV peptide binding to rat Galpha-i3. P08753. Galpha-i3/FITC-GIV peptide fluorescence polarization, 90 min; stronger effect = lower value; scaled: aluminum fluoride 0%, vehicle 100%. percent of control (FP), % (test concentration not listed). 0.42% of 210,000 active. AID 1224905;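 active = replicate mean at 85% of control or lower, very high polarization wells dropped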;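 note: wells of about 15 µL received 100 nL stock; the first replicate is given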
GIV Gai FP conf = GIV-Galpha-i3 inhibition, FP confirmation | 580 tested, 38% active | shares compounds with GIV Gai3 FP | AID 1259350 | FITC-GIV peptide binding to Galphai3, fluorescence polarization; active compounds read low | fluorescence polarization, mP at 100 µM;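 active means inhibition score of 15 or more, meaning 100 minus mean polarization as percent of control over three replicates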;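 further: lower mP means peptide displaced from Galphai3 so more inhibition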
GIV Gai AS conf = confirmation of inhibitors of GIV binding to human Galpha-i3; shares compounds with GIV Gai3 FP; AlphaScreen Galphai3-GIV binding, purified proteins, 90 min; active compounds read low; AlphaScreen counts at 100 µM; 580 tested, 39% active; AID 1259351;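 active means inhibition score at or above a set limit, where the score is 100 minus the three-replicate mean percent of control signal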
Each line names hits and unclear results; the compound was inactive in the other large screens (follow-up assays come after a bar, where they were run).

COC(=O)c1ccc2c(=O)[nH]c(COC(=O)C3CC4CCCC(C3)C4=O)nc2c1 (stereo not given)	none (no result: GIV Gai3 FP)
O=C(Nc1ccc(N2CCOCC2)c2nonc12)c1ccco1	none
Nc1ccc(N2CCOCC2)c2nonc12	GIV Gai3 FP 63 | GIV Gai FP conf 46 | GIV Gai AS conf 2710
CC(=O)Nc1nnc(SCC(=O)N2C(C)CCCC2C)s1 (stereo not given)	none
COc1ccc(-c2nc(N3CCC(C)CC3)nc3nn4c(C)cc(C)nc4c23)cc1	none | GIV Gai FP conf inactive | GIV Gai AS conf inactive
Cc1cc(C)n2nc3nc(N4CCCC4)nc(-c4ccccc4)c3c2n1	none
Cc1n[nH]c(C)c1CC(=O)NCCc1ccccc1	none
O=C1C2CC=C(Cl)CC2C(=O)N1CCO (stereo not given)	none
CCOC(=O)CN1C(=O)C2CC=C(Cl)CC2C1=O (stereo not given)	GIV Gai3 FP 81 | GIV Gai FP conf inactive | GIV Gai AS conf inactive
c1ccc(-c2nc(C3CCCCC3)no2)cc1	none (no result: GIV Gai3 FP)
Cc1cc2nc3c(=O)n(C)c(=O)n(C)c3nc2cc1N	none (no result: HCMV NEC inh)
Cn1c(=O)c2nc3ccc(NC(=O)C(F)(F)F)cc3nc2n(C)c1=O	GIV Gai3 FP 79 | GIV Gai FP conf inactive | GIV Gai AS conf inactive
Cc1cc(C)c2c(n1)nn1c(C)c(CCC(=O)NCCc3ccccc3)c(C)nc21	none (no result: HCMV NEC inh)
Cc1ccc(S(=O)(=O)Nc2cc(C(=O)NCC3CCCO3)ccc2N2CCCCC2)cc1 (stereo not given)	none
O=C(Cn1cc(/C=C2\NC(=O)NC2=O)c2ccccc21)Nc1ccccc1	none
CCc1ccc(NC(=O)Cn2c(=O)n(CCCC(=O)NCc3ccc4c(c3)OCO4)c(=O)c3ccccc32)cc1	none
COc1ccc(C(=O)NC(c2ccc(C)cc2)c2cc(Cl)c3cccnc3c2O)cc1 (stereo not given)	GIV Gai3 FP 80 (no result: HCMV NEC inh) | GIV Gai FP conf 61 | GIV Gai AS conf inactive
COc1ccc(C(=O)NC(c2ccccc2Cl)c2cc(Cl)c3cccnc3c2O)cc1 (stereo not given)	none (no result: HCMV NEC inh)
CC(C)=C1C2C=CC1C1C(=O)N(c3ccc(C)c(Br)c3)C(=O)C21 (stereo not given)	none (no result: HCMV NEC inh)
Cc1cc(C)nc(NC(c2cccc(F)c2)c2cc(C)sc2NC(=O)c2ccccc2)n1 (stereo not given)	GIV Gai3 FP 69 | GIV Gai FP conf inactive | GIV Gai AS conf inactive
Cc1cc(C)nc(NC(c2ccccc2)c2cc(C)sc2NC(=O)c2ccccc2)n1 (stereo not given)	none
Nc1ncnc2c1c1nc3ccccc3nc1n2Cc1ccccc1	none
COC(=O)c1ccc(-c2nnc(-c3ccc(N(C)C)cc3)o2)cc1	none (no result: GIV Gai3 FP)
COC(=O)c1ccc(-c2ncc(-c3ccc(N(C)C)cc3)o2)cc1	none | GIV Gai FP conf inactive | GIV Gai AS conf inactive
CC1CCN(Cc2nc(-c3ccccc3)no2)CC1	none
CN1C(C(=O)Nc2ccc(OC(F)(F)F)cc2)=CC(c2ccc3c(c2)OCO3)=NS1(=O)=O	GIV Gai3 FP 55 | GIV Gai FP conf inactive | GIV Gai AS conf inactive
CCc1ccc(NC(=O)C2=CC(c3ccc4c(c3)OCO4)=NS(=O)(=O)N2C)cc1	none
CN(C)S(=O)(=O)c1ccc2c(c1)N(CC(=O)N1CCCC1)C(=O)C1CCCCN21 (stereo not given)	none
CCS(=O)(=O)c1ccc(-c2ccc(NC(=O)c3ccc(F)cc3)cc2)nn1	none
CN1CCN(S(=O)(=O)c2cc(C(=O)NCC3CCCO3)cc(-c3ccccc3)c2)CC1 (stereo not given)	none (no result: GIV Gai3 FP)
CCOC(=O)c1c(-c2ccccc2)c[nH]c1N	GIV Gai3 FP 60 | GIV Gai FP conf 39 | GIV Gai AS conf 19838
CCOC(=O)c1c(-c2ccccc2)cn2ccccc12	none
CC(C)n1c(N2CCCN(C(=O)C3CCCO3)CC2)cc(=O)n(C(C)C)c1=O (stereo not given)	none (no result: HCMV NEC inh)
Cc1cc(N2CCc3ccccc32)n2ncnc2n1	none
c1ccc2c(c1)CCN2c1c2c(nc3ncnn13)CCC2	none | GIV Gai FP conf inactive | GIV Gai AS conf inactive
Cc1nc(N(C)C)cc(N2CCN(C(=O)c3ccc(C(C)(C)C)cc3)CC2)n1	none
CCOC(=O)CSc1nc(NCc2ccc3c(c2)OCO3)c2ccccc2n1	none (no result: HCMV NEC inh)
CCOC(=O)c1nc2ccccc2nc1NCc1ccc2c(c1)OCO2	none | GIV Gai FP conf inactive | GIV Gai AS conf inactive
O=C1C(=O)N(c2ccc(Br)cn2)C(c2ccc([N+](=O)[O-])cc2)/C1=C(\O)c1ccc(Cl)cc1 (stereo not given)	none (no result: HCMV NEC inh)
CCCN1CCN(c2ncnc3sc(C(=O)O)c(C)c23)CC1	none
O=C(CSc1nc(-c2ccccc2)cs1)N1CCOCC1	none | GIV Gai FP conf inactive | GIV Gai AS conf inactive
O=C(CSc1nc(-c2ccccc2)cs1)N1CCN(S(=O)(=O)c2ccccc2)CC1	none (no result: GIV Gai3 FP)
CC1=NN(c2ccccc2)C(=O)/C1=C1/C(=O)N(c2ccccc2)N=C1C	HCMV NEC inh 106, GIV Gai3 FP 61 | GIV Gai FP conf 53 | GIV Gai AS conf 17646
CC1=NN(c2ccccc2)C(=O)C1=C1SCCS1	none
Cn1c(=O)c2ccc(C(=O)NC3CCCC3)cc2n2c(SCC(=O)NC3CCCCC3)nnc12	none
O=C(CCc1nc(-c2ccc(Cl)cc2)no1)Nc1ccc(F)cc1	none (no result: HCMV NEC inh)
CCCN(CCC)S(=O)(=O)c1ccc(C(=O)Nc2ccc3c4c(cccc24)C(=O)N3CC)cc1	none (no result: HCMV NEC inh)
C=CCN(CC=C)S(=O)(=O)c1ccc(C(=O)Nc2ccc3c4c(cccc24)C(=O)N3CC)cc1	GIV Gai3 FP 78 (no result: HCMV NEC inh) | GIV Gai FP conf inactive | GIV Gai AS conf inactive
CC1=C(C(=O)OCC2CCCO2)C(c2ccccc2OCc2ccccc2)C2=C(CC(C)(C)CC2=O)N1 (stereo not given)	none
COc1ccc2c(CC(=O)Nc3ccccc3)coc2c1	none (no result: GIV Gai3 FP)
COc1ccc2c(CC(=O)O)coc2c1	none | GIV Gai FP conf inactive | GIV Gai AS conf inactive
CS(=O)(=O)Nc1cccc(-c2nc3cccnc3s2)c1	none
COC(=O)CCn1cnc2onc(-c3cc(F)cc(F)c3)c2c1=O	GIV Gai3 FP 71 | GIV Gai FP conf inactive | GIV Gai AS conf inactive
CC(C)NC(=O)CCn1cnc2onc(-c3cccc(F)c3)c2c1=O	none
O=C(CCN1C(=O)/C(=C/c2ccc3c(c2)OCO3)SC1=S)Nc1ccccc1	none (no result: GIV Gai3 FP)
O=C(CCN1C(=O)/C(=C/c2ccc3c(c2)OCO3)SC1=S)NC1=NCCS1	GIV Gai3 FP 84 | GIV Gai FP conf inactive | GIV Gai AS conf inactive
COc1ccc(OC)c(Nc2ncnc3c2cnn3-c2ccc(C)cc2)c1	none (no result: HCMV NEC inh)
CCCn1cc(S(=O)(=O)c2ccc(OC)cc2)c(=O)c2cc(F)c(N3CCN(C)CC3)cc21	GIV Gai3 FP 68 | GIV Gai FP conf inactive | GIV Gai AS conf inactive
CCCn1cc(S(=O)(=O)c2ccc(CC)cc2)c(=O)c2cc(F)c(N3CCN(C)CC3)cc21	none (no result: HCMV NEC inh)
O=C1CCCC(O)=C1C1=NC2(CCCCCC2)Cc2ccccc21	none (no result: HCMV NEC inh)
O=C1CCCC(O)=C1C1(O)C(=O)c2ccccc2C1=O	HCMV NEC inh 74, GIV Gai3 FP 62 | GIV Gai FP conf 56 | GIV Gai AS conf inactive
O=C(c1ccccc1)N1CCN(C2CCCCC2)CC1	none
CCc1cc2c(N3CCN(Cc4nc5ccccc5[nH]4)CC3)ncnc2s1	none

Source: PubChem (ICCB-Longwood Screening Facility, Harvard Medical School)
